The source of these data is PubChem BioAssay AID1813 (Broad Institute, 2009).

The entries are a selection whose mix differs from that of the whole data set. Active and inactive are the calls of the source. Rule as the data show it: active = inhibition above about 60%; inconclusive = no clear call, values can overlap the other calls; inactive = below that.

This assay is described as follows: 5' untranslated region of α-synuclein, MLPCN primary screen (AID 1813).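 Also: H4 neuroglioblastoma cells stably carrying SNCA 5'UTR luciferase fusion; 0% = DMSO wells and 100% = positive control.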 The settings on record: alpha-synuclein 5'UTR reporter, inhibitor activity; active compounds read high; tested at 7.5 µM.
In the case of `COc1cc(C2NCCC3(OCCO3)C2(C)C)cc(OC)c1OC` (configuration not stated), the inhibition was inactive: 3.21%. For the compound `CCOP(=O)(Nc1cccc2ccccc12)OCC`, the inhibition was inactive: 5.21%. To `Cc1ccc(NCCc2c([N+](=O)[O-])cc([N+](=O)[O-])cc2[N+](=O)[O-])cc1` belongs inactive: -147%.

For `Nc1cccc2c([As](=O)(O)O)cccc12`, the inhibition was inactive: 32.6%. As for `CCCOP(=S)(Nc1nc(N)cc(=O)[nH]1)OCCC`, the inhibition is inactive: -16.7%. To `O=[As](O)(c1cccc(O)c1)c1cccc(O)c1` belongs inactive: -14.2%. To `Cc1cccc(OCC(=O)OC2CN3CCC2CC3)c1` (configuration not stated) belongs inactive: -8.49%.

`O=C(OC1CN2CCC1CC2)c1ccc(Cl)cc1` (configuration not stated): the inhibition was inactive: 11.5%.

With `COc1cc(C(=O)NCC2(N3CCOCC3)CCCCC2)cc(Cl)c1OC(C)C`, the inhibition was inactive: -7.66%.

`O=[As](O)(O)c1cccnc1`: the inhibition is inactive: 5.02%. Take `CS(=O)(=O)c1ccc(Cl)c(NC(=O)COC(=O)C(O)(c2ccccc2)c2ccccc2)c1`: the inhibition was inactive: 12.4%. For `N#CCCN(C(=O)COC(=O)C(O)(c1ccccc1)c1ccccc1)c1ccc(F)cc1`, the inhibition was inactive: 12.1%. To `CCOP1(=S)c2c(C)nn(CCC#N)c2N=C(c2ccc(F)cc2)N1C` (configuration not stated) belongs inactive: -4.85%; to `CN(C(=O)Cc1ccccc1)[C@@H]1CC[C@]2(CCCO2)C[C@H]1N1CCCC1`, inactive: 5.96%. To `CN(C)C(=O)c1cc([N+](=O)[O-])cc2c1-c1c(cc([N+](=O)[O-])cc1[N+](=O)[O-])C2=O` belongs inactive: -62.5%.

As for `O=[N+]([O-])c1ccc2c(c1)nnn2O`, the inhibition was inactive: -17.2%. To `CN(C(=O)Cc1ccc(Cl)c(Cl)c1)[C@H]1CC[C@@]2(CCCO2)C[C@@H]1N1CCCC1` belongs inactive: -16.8%; to `NC(=O)Nc1ccc([As](=O)(O)O)cc1`, inactive: 10.3%; to `O=C(O)COc1ccc([As](=O)(O)O)cc1[N+](=O)[O-]`, inactive: -4.69%.

As to `Nc1ccccc1[As](=O)(O)c1ccccc1`, the inhibition was inactive: -5.21%. To `CCOP1(=S)c2c(C)nn(CCC#N)c2N=C(c2ccccc2F)N1C` (configuration not stated) belongs inactive: 4.46%; to `O=P(Nc1nccs1)(c1ccccc1)c1nc2ccccc2s1` (configuration not stated), inactive: -58%. To `O=P(Nc1nccs1)(Oc1ccccc1)Oc1ccccc1` belongs inactive: -19.8%. For `CS(=O)(=O)c1cc([N+](=O)[O-])c2no[n+]([O-])c2c1`, the inhibition is inactive: 1.3%. As to `Nc1cccc([As](=O)(O)c2ccccc2)c1`, the inhibition is inactive: -1.54%.

Turning to `O=P1(Nc2ccc(Br)cn2)COc2ccccc2OC1`, the inhibition was inactive: 14.9%. Take `Cc1ccc(OCC(=O)OC2CN3CCC2CC3)cc1` (configuration not stated): the inhibition is inactive: 3.32%. To `O=[As](O)(c1cccs1)c1cccs1` belongs inactive: 5.02%; to `O=P1(Nc2ncccn2)COc2ccccc2OC1`, inactive: -6.88%. To `CN(C)C1(CNC(=O)c2ccc(S(C)(=O)=O)cc2)CCCCC1` belongs inactive: 21.5%.

As for `O=C(/C=C/c1ccccc1)OC1CN2CCC1CC2` (configuration not stated), the inhibition was inactive: -8.04%. On to `Cc1nn(-c2ccccc2)c2c1P(=O)(N1CCOCC1)N(C)C(c1ccccc1)=N2` (configuration not stated), for which the inhibition is inactive: -4.44%. Turning to `Cc1ccc(C(=O)OC2CN3CCC2CC3)cc1` (configuration not stated), the inhibition is inactive: 0.707%.

`CC1CCC(C(C)C)C(OP(=O)(Nc2ccccn2)c2ccccc2)C1` (configuration not stated): the inhibition was inactive: 11.1%.

Consider `CN(C(=O)Cc1ccc(Cl)c(Cl)c1)[C@@H]1CCCC[C@H]1N1CCCC1`, for which the inhibition is inactive: -10.2%. With `CC(C)/C=N\N=C(\N)N[N+](=O)[O-]`, the inhibition was inactive: 8.17%. To `O=[As](O)(c1ccccc1Br)c1ccccc1Br` belongs inactive: -6.05%; to `CC1(CBr)Cn2c(nc3ccccc3c2=O)S1` (configuration not stated), inactive: 7.12%. With `COc1ccccc1CNC(=O)COC(=O)C(O)(c1ccccc1)c1ccccc1`, the inhibition is inactive: 3.13%. Regarding `Clc1n[nH]nc1-c1nn[nH][15n]1`, the inhibition is inactive: -6.28%. To `CC(C)(C)C(=O)NC(Sc1ncccn1)C(Cl)(Cl)Cl` (configuration not stated) belongs inactive: -13.2%; to `CCC1=CC2Cc3nc4ccc(Cl)cc4c(N)c3C(C1)C2` (configuration not stated), inactive: -17.3%. In the case of `O=P1(Nc2ccccn2)COc2ccccc2OC1`, the inhibition was inactive: -0.496%. As to `CCOP(=O)(NC(=NC(C)c1ccccc1)NC(C)c1ccccc1)OCC` (configuration not stated), the inhibition was inactive: 4.18%.

On to `CN(CCCl)Cc1cc(Cl)c(NC2=NCCN2)c(Cl)c1`, for which the inhibition is inactive: -3.92%.

As for `CCOP(=O)(Nc1ccc(C)cn1)OCC`, the inhibition is inactive: -5.58%. With `CCC(C)N(CC(C)C)C(=S)SC(NC(C)=O)C(Cl)(Cl)Cl` (configuration not stated), the inhibition is inactive: 11.9%. On to `O=C(OC1CN2CCC1CC2)c1cccc([N+](=O)[O-])c1` (configuration not stated), for which the inhibition is inactive: 0.364%. `CCOC(=O)c1ccc(NC(=O)C(C)(CCl)SC)cc1` (configuration not stated): the inhibition is inactive: -60.5%.

On to `O=C(COc1ccccc1)OC1CN2CCC1CC2` (configuration not stated), for which the inhibition is inactive: 6.5%.

Take `O=C(Nc1ccncc1[N+](=O)[O-])c1ccc([N+](=O)[O-])cc1[N+](=O)[O-]`: the inhibition was inactive: -23.9%. To `COP1(=S)c2c(C)nn(CCC#N)c2N=C(c2ccc(F)cc2)N1C` (configuration not stated) belongs inactive: -6.65%; to `Cc1cc(SC(NC=O)C(Cl)(Cl)Cl)ncn1` (configuration not stated), inactive: 15.8%; to `O=P(Nc1ccccn1)(c1cccc2ccccc12)c1cccc2ccccc12`, inactive: 22.9%. To `O=[N+]([O-])c1ccc(Nc2ccc(Oc3ccc([N+](=O)[O-])cc3[N+](=O)[O-])cc2)c([N+](=O)[O-])c1` belongs inactive: 12.3%. To `CCOC(=O)Nc1cccc([As](=O)(O)O)c1` belongs inactive: -2.33%; to `CCCCOc1ccc(C(=O)NCC2(N3CCCCC3)CCCCC2)cc1OC`, inactive: -0.345%.

`Cc1cc(SC(NC(=O)c2ccccc2)C(Cl)(Cl)Cl)nc(C(C)C)n1` (configuration not stated): the inhibition was inactive: 12%. To `CCOC(=O)Nc1ccc([As](=O)(O)O)c(O)c1` belongs inactive: 19.4%.

As to `CCN(CC)C(=S)SC(NC=O)C(Cl)(Cl)Cl` (configuration not stated), the inhibition is inactive: 13%. To `CC(C)NC(=O)NP(=O)(Oc1ccccc1)Oc1ccccc1` belongs inactive: -15.8%; to `O=[N+]([O-])c1cc([N+](=O)[O-])c(-c2ccn[nH]2)s1`, inactive: -37.5%. Take `ClCCSc1nnc(-c2cccnc2)o1`: the inhibition is inactive: -32%. Consider `CC(C)c1ccc(OP(=O)(Nc2ccccn2)Oc2ccccc2F)cc1` (configuration not stated), for which the inhibition was inactive: -26%. To `Cc1ccc(OP(=O)(Nc2ccc([N+](=O)[O-])cn2)Oc2ccc(C)cc2)cc1` belongs inactive: 8.14%. To `Cc1ccc2nc3c(c(C)c2c1)CC(C(Cl)Cl)S3` (configuration not stated) belongs inactive: -46.6%; to `C[As](=O)(O)c1cccc(C(=O)O)c1`, inactive: -2.55%; to `O=[As](O)(c1ccc(O)cc1)c1ccccc1O`, inactive: 11.8%. Consider `COc1ccc(N/C(=N/P(=O)(N2CCOCC2)N2CCOCC2)N2CCOCC2)cc1`, for which the inhibition was inactive: 14.9%.

As to `COc1ccc2nc(NP(=O)(c3ccccc3)c3ccccc3)sc2c1`, the inhibition is inactive: 19.5%.

On to `COc1cc(I)ccc1[As](=O)(O)O`, for which the inhibition is inactive: -2.53%. To `Cc1c2c(nc3ccccc13)SC(C(Cl)Cl)C2` (configuration not stated) belongs inactive: -6.58%; to `O=C(OC1CN2CCC1CC2)C12CC3CC(CC(C3)C1)C2` (configuration not stated), inactive: -20.3%. With `Cc1cc(=O)[nH]c(N[N+](=O)[O-])n1`, the inhibition was inactive: -0.927%.

As to `Oc1ccccc1CNc1ccccn1`, the inhibition was inactive: -36.6%. To `Cc1c2non([O-])c-2c(C)[n+](=O)[n+]1[O-]` belongs inactive: 10.5%. In the case of `O=C(NC(Sc1ccncn1)C(Cl)(Cl)Cl)c1ccccc1` (configuration not stated), the inhibition is inactive: -25.8%. With `CC(C)CC(=O)NC(Sc1ccc(Cl)cc1)C(Cl)(Cl)Cl` (configuration not stated), the inhibition was inactive: -13.5%.

For the compound `Nc1cc(N)c2nonc2c1[N+](=O)[O-]`, the inhibition was inactive: 0.878%.

For the compound `Clc1ccc(Cl)c(NC2=NCC(CBr)S2)c1` (configuration not stated), the inhibition was inactive: 3.82%.

Regarding `CN1CCCC(OC(=O)C(c2ccccc2)c2ccccc2)C1` (configuration not stated), the inhibition is inactive: 7.8%. Take `COc1ccccc1OP(=O)(Nc1ccc(C)cn1)Oc1ccccc1OC`: the inhibition was inactive: -6.67%. To `Cc1ccc(OP(=O)(Nc2nccs2)Oc2ccc(C)cc2)cc1` belongs inactive: 23.3%. `Cc1ccc(N/C(=N/P(=O)(N2CCOCC2)N2CCOCC2)N2CCOCC2)cc1`: the inhibition was inactive: 29.8%.

Take `NC(=O)c1cc([N+](=O)[O-])cc([N+](=O)[O-])c1N`: the inhibition is inactive: 13%.

For `Nc1cccc2ccc([As](=O)(O)O)cc12`, the inhibition is inactive: 3.56%. To `CCN(N=Nc1nonc1N)c1nonc1N` belongs inactive: 22.5%. To `O=[N+]([O-])c1cc([N+](=O)[O-])c(CCN2CCOCC2)c([N+](=O)[O-])c1` belongs inactive: -8.38%; to `CCOP(=O)(Nc1ccccc1)OCC`, inactive: -26%; to `Cc1cc(SC(NC(=O)c2ccc(F)cc2)C(Cl)(Cl)Cl)ncn1` (configuration not stated), inactive: 23.9%. To `CN(C(=O)Cc1ccc(Cl)c(Cl)c1)[C@H]1CCCC[C@@H]1N1CCCC1` belongs inactive: 0%. Take `Cc1ccc(NP(=O)(Oc2ccccc2F)Oc2ccccc2F)nc1`: the inhibition is inactive: 4.32%. To `O=P(Nc1nc2ccc(Cl)cc2s1)(c1ccccc1)c1ccccc1` belongs inactive: 26%. Turning to `O=C(O)c1ccccc1[As](=O)(O)O`, the inhibition was inactive: 1.85%.

Turning to `CC(=O)Nc1ccc([As](=O)(O)O)cc1`, the inhibition was inactive: 7.22%.

`O=C(O)CNc1ccc([As](=O)(O)O)cc1`: the inhibition was inactive: 5.88%. Take `O=[N+]([O-])c1cccc(NC2=NCC(CBr)S2)c1` (configuration not stated): the inhibition is inactive: 13.8%. `O=[N+]([O-])c1ncn(CCn2ncnc2[N+](=O)[O-])n1`: the inhibition was inactive: 9.13%. To `CC(C)(C)C(=O)NC(Sc1ccncn1)C(Cl)(Cl)Cl` (configuration not stated) belongs inactive: -6.83%; to `O=C(Nc1cc([As](=O)(O)O)ccc1O)c1ccccc1`, inactive: -2.67%. Take `CC1CCN(C(=O)Oc2c(Cl)cc(Cl)c3cccnc23)CC1`: the inhibition is inactive: -24.6%.

`CC(C)=N/N=C(\N)N[N+](=O)[O-]`: the inhibition was inactive: 19.1%.

One may read the inhibition as the change of the read-out against control, counted positive when it falls.
